Measured values from patent US8415507B2 (priority 2010, dated 2013).

Assay: Relative humidity stability at ambient temperature, analyzed by XRPD
Assay type: physicochemical

Conversion to hydrate at 75% RH (75% RH, up to four weeks): no conversion is observed
Time of partial conversion to hydrate at 94% RH (94% RH): between three days and one week
Time of conversion to hydrate at 98% RH (98% RH): less than one day
Compound: NC(=O)N1c2ccccc2C=Cc2ccccc21 [carbamazepine]
Results (form by XRPD) (94% RH, 1 week (7 days)): carbamazepine (Form III) + small amount of
Results (form by XRPD) (94% RH, 4 weeks): carbamazepine dihydrate + small amount of
Results (form by XRPD) (98% RH, 1 week): carbamazepine dihydrate + small amount of
Results (form by XRPD) (98% RH, 1 day): carbamazepine (Form III) + small amount of
Results (form by XRPD) (98% RH, 3 days): carbamazepine (Form III) + small amount of
